What was measured:
inflamed knee joint = assay: Blood pressure response to compression of the kaolin/carrageenan inflamed knee joint; conditions: for compression evoked increase in BP: intrathecal delivery
human κ receptor = human κ receptor (Homo sapiens, UniProt P41145); assay: Opiate receptor binding, κ; conditions: read-out: In Vitro Binding Affinities Human Opiate Receptors Ki, κ

The chains behind the UniProt entries cited, without tags or fusion partners. Where a name states a change or a piece, a line headed by the entry shows the natural chain unless it says otherwise.
UniProt P41145: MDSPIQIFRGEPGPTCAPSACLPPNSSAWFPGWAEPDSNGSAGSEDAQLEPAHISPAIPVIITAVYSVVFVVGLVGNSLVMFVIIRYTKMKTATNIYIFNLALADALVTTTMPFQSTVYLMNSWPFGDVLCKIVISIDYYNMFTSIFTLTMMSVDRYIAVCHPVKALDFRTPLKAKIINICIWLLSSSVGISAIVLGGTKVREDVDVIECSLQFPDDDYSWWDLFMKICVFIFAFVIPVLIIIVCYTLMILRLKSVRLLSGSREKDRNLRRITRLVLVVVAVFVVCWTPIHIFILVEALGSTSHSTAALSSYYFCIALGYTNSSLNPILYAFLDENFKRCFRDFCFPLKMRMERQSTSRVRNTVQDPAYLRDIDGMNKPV

Row | Compound | ordering of activity, blockade of the compression-evoked increase in BP (inflamed knee joint; intramuscular (IM) administration) | compression evoked increase in BP (inflamed knee joint) | Ki (human κ receptor)
1 | CN(C(=O)Cc1ccc(Cl)c(Cl)c1)[C@@H]1CCCC[C@H]1N1CCCC1 (relative stereo) | 0 | effectively blocked | 
2 | N#CC(CCN1CCC(C(=O)O)(c2ccccc2)CC1)(c1ccccc1)c1ccccc1 [Difenoxin] |  |  | > 1000 nM
3 | Spiradoline mesylate |  | effectively blocked | 
